We go through one molecule from patent US4782016A (Eastman Kodak Company, priority 1985, dated 1988).

The chains behind the UniProt entries cited, without tags or fusion partners. Residues count along the entry.
UniProt P09487, 18-502 limits assumed: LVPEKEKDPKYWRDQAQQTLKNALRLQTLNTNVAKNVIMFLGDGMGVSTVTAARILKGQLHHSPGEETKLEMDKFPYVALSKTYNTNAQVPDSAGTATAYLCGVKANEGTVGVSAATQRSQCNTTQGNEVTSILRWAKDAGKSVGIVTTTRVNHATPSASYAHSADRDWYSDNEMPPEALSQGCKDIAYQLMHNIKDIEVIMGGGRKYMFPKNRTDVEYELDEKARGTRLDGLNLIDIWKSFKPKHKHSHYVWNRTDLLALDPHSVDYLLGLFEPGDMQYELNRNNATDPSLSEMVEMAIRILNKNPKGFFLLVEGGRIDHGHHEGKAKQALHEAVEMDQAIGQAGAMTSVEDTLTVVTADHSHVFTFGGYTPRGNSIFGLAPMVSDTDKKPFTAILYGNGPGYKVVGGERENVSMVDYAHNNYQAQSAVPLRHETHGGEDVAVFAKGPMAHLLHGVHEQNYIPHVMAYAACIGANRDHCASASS
UniProt P09487, 18-499 limits assumed: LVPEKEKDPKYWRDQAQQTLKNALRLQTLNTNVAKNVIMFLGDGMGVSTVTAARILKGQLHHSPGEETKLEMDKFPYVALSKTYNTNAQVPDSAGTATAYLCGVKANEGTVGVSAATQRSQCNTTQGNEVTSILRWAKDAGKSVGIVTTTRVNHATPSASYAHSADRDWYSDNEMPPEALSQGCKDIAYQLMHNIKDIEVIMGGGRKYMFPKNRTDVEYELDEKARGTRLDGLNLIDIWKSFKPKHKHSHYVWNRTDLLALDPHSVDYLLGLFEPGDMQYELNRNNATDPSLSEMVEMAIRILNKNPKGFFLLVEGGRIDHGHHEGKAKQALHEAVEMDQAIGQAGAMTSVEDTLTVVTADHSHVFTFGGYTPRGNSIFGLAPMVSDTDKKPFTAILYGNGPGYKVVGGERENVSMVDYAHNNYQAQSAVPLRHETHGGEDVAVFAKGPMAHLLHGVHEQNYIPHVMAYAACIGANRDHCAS

In data set [1] the target is T1, beef liver alkaline phosphatase (Bos taurus, UniProt P09487). Particulars: human serum test samples 1-10 (one per line of Table II); pH 8, 37° C.
For data set [2], the target named is T1, beef liver alkaline phosphatase. Particulars: pH 8, 37° C.
Data set [3] concerns beef liver alkaline phosphatase. Particulars: theophylline 20 μg/ml.
Data set [4] deals with T1, beef liver alkaline phosphatase. Conditions: theophylline 20 μg/ml, human ALP 0 I.U./l.
For data set [5] the following is noted: patients; asthma and pulmonary diseases; cited from earlier work.
The mark [6] stands for this setting: theophylline 0.28 mg/dl calibrator.
The mark [7] stands for this setting: theophylline 0.56 mg/dl calibrator.
Setting [8] is: theophylline 2.25 mg/dl calibrator.
The mark [9] stands for this setting: theophylline 4.5 mg/dl calibrator.

The structures appear in SMILES notation. Read-outs that look alike come from different tables or passages of the source.

`Cn1c(=O)c2[nH]cnc2n(C)c1=O` [Theophylline, theophylline]: the % Inhibition (commonly the relative decrease from the control value, in per cent) in data set [1] amounted to 0%; in data set [2] (setting [6]), 5.6%; in data set [2] (setting [7]) it was 12.6%; in data set [2] (setting [8]), 30.1%; in data set [2] (setting [9]) it was 42.0%. For the same molecule, the “Absorbance (402.5 nm)” value in data set [2] (setting [6]) is 0.135; in data set [2] (setting [7]), 0.125; in data set [2] (setting [8]) it was 0.100; in data set [2] (setting [9]) it was 0.083. For the same molecule, the “O.D./min. at pH 8” value was 0.50 O.D./min in data set [3] (human ALP 1000 I.U./l) and 0.48 O.D./min in data set [4]. Further, the “O.D./min. at pH 9.5” value came to 0.98 O.D./min in data set [3] (human ALP 1000 I.U./l) and 0.76 O.D./min in data set [4]. The “% Interference by human ALP at pH 8” value in data set [3] (human ALP 1000 vs 0 I.U./l) was determined as 4%. The “% Interference by human ALP at pH 9.5” value in data set [3] (human ALP 1000 vs 0 I.U./l) stood at 29%. Also, the “therapeutic range of use” value in data set [5] is 1 to 2 mg/dL.
